# Experiments:
# Sequences of proteins named here, by UniProt entry; tags and fusion partners are left off. Residues count along the entry.
# UniProt P02768, 25-609: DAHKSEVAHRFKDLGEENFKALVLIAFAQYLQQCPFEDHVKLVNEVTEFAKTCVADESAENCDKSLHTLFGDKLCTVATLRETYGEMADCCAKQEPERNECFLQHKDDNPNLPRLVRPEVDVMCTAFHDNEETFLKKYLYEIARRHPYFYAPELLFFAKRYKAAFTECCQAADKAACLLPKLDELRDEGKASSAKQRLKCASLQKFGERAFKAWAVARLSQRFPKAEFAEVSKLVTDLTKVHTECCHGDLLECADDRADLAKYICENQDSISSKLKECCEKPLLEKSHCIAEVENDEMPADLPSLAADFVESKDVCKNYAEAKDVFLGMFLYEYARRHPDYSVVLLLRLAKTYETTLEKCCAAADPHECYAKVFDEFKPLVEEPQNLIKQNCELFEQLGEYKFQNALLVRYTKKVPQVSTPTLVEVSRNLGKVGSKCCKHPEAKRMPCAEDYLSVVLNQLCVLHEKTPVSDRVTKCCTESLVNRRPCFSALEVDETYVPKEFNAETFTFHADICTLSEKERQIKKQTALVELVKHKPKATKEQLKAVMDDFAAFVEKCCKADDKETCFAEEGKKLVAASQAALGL
# HSA Site II and AGP = conditions: human serum 1, four nuclides
# HSA Site II = HSA Site II (Homo sapiens, UniProt P02768); conditions: 400 μM, pH 7.4
SMILES,"Displacement effect on drug with affinity to both site II of HSA and AGP (^125I-IMP), in words (HSA Site II and AGP)",Change ratio (time) of ^14C-DZP free drug ratio (HSA Site II) [time]
"CC(C)Cc1ccc(C(C)C(=O)O)cc1 (centres unmarked) [IPF, ibuprofen]",exhibited displacement effect,
"CC(C)NCC(O)COc1cccc2ccccc12 (centres unmarked) [PPL, propranolol]",,1.06

# Reference: patent US7175991B2, “Method of measuring binding site on plasma protein of plasma protein-binding drug and method of measuring plasma protein mutation” (Nihon Medi-Physics Co., Ltd., priority 2002, dated 2007)
